# What was measured:
# Chains of the proteins cited; added tags and fusions are not shown. Lines headed by an entry give the natural chain unless they say otherwise; changes in a name come on top.
# UniProt Q62645, whole entry: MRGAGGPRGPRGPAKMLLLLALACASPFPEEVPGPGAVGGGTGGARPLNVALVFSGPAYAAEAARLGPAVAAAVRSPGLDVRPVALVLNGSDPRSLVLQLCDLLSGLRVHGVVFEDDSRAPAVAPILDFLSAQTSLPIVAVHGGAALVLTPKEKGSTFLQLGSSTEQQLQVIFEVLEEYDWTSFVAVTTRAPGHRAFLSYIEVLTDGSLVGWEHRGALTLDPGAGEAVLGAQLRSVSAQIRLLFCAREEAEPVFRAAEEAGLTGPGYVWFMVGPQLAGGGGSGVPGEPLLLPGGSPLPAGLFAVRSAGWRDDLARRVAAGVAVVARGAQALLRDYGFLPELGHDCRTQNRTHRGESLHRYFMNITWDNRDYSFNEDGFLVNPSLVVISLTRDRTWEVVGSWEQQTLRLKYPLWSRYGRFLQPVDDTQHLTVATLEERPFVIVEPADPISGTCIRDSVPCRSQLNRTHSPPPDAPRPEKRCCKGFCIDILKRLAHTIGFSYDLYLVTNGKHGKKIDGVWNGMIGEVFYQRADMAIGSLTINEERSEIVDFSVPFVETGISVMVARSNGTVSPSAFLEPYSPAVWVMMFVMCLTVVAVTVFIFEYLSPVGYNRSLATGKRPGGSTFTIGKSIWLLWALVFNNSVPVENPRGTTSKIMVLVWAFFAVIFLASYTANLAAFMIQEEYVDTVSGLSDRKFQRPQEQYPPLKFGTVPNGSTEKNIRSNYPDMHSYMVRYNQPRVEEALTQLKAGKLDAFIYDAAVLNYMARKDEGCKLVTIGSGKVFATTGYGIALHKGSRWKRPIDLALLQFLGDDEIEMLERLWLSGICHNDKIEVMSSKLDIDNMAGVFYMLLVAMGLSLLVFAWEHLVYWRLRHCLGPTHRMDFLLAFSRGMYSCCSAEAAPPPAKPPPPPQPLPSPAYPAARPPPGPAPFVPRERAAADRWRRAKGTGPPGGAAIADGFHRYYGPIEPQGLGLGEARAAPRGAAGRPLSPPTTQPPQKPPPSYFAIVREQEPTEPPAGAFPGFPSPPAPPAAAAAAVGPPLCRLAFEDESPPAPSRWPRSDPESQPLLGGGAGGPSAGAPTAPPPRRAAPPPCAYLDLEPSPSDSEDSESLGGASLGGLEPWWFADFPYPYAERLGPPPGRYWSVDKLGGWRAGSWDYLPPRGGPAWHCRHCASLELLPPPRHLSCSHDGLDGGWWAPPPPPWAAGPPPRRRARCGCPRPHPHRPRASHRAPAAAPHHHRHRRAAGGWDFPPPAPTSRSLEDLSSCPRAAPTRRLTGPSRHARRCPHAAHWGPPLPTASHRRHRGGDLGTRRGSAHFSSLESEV
# UniProt Q00961: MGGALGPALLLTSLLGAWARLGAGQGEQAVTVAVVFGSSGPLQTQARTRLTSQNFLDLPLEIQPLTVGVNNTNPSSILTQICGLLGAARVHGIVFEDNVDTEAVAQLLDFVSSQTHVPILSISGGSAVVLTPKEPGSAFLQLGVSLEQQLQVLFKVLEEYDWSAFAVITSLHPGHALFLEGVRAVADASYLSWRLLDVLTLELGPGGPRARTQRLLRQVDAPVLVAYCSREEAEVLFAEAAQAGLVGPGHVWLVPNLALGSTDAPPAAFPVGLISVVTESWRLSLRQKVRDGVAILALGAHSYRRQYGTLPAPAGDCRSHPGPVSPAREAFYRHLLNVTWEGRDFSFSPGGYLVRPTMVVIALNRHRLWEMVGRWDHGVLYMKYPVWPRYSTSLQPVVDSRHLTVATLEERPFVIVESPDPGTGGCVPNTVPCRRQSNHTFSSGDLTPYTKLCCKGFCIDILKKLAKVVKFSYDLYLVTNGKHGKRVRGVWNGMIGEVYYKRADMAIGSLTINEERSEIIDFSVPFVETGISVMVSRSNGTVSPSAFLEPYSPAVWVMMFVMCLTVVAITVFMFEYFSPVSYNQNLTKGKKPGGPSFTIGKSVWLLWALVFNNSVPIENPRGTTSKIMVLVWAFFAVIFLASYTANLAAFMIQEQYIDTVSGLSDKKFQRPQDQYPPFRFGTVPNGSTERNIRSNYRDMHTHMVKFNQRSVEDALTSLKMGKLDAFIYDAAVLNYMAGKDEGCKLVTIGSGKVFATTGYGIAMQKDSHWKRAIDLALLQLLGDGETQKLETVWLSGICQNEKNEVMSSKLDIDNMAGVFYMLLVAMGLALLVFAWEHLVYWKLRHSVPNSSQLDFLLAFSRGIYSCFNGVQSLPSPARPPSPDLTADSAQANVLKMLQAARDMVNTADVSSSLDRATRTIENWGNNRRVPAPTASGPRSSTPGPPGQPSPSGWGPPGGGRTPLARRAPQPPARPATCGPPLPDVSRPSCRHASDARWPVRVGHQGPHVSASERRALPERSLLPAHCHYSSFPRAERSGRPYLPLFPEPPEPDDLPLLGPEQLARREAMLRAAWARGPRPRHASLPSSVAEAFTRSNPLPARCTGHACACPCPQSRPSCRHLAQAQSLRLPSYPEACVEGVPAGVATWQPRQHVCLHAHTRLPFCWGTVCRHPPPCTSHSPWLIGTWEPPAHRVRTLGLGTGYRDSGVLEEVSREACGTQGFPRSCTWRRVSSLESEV
# [1] = target: Ionotropic glutamate receptor NMDA 1/2D (Rattus norvegicus, UniProt P35439+Q62645); test: Activity at rat recombinant GluN1/GluN2D receptor assessed as potentiation of glycine/glutamate-induced activation by two-electrode voltage clamp technique; type: protein-complex assay
# [2] = target: Glutamate NMDA receptor; Grin1/Grin2c (Rattus norvegicus, UniProt P35439+Q00961); test: Activity at rat recombinant GluN1/GluN2C receptor assessed as potentiation of glycine/glutamate-induced activation by two-electrode voltage clamp technique; type: protein-complex assay
compound,measurement,setting,value
COc1ccc(OCC2c3ccc(OC)cc3CCN2C(=O)c2cccc(Cl)c2)cc1 (racemic),EC50,[1],1000 nM
same,EC50,[2],1300 nM

# From ChEMBL document CHEMBL2396604, “Synthesis and structure activity relationship of tetrahydroisoquinoline-based potentiators of GluN2C and GluN2D containing N-methyl-D-aspartate receptors” (J Med Chem, 2013)
